{"sequences": {"note": "The chains behind the UniProt entries cited, without tags or fusion partners. Residues count along the entry.", "UniProt Q5T4S7, 4828-5183": "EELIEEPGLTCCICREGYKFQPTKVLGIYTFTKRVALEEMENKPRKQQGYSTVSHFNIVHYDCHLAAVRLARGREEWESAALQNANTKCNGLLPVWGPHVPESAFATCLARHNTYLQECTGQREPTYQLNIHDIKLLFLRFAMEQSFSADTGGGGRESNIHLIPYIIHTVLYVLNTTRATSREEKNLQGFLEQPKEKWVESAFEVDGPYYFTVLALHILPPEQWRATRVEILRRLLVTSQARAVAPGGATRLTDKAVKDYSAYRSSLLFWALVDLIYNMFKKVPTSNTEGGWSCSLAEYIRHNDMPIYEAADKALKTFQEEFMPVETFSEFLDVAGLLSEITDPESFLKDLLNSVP", "UniProt P49459, whole entry": "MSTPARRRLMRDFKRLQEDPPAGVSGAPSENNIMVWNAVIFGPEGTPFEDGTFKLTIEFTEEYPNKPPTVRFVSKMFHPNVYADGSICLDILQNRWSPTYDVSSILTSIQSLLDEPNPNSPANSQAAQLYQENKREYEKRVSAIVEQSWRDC"}, "source": "paper PMC10873205", "target": "UBR4_(4828–5183) (human) (UniProt Q5T4S7)", "test": "ITC; UBR4 construct in the cell (74 μM), UBE2A in the syringe at tenfold higher concentration; 25 °C; 0.4 µl then 13 injections of 3 µl; UBE2A into buffer subtracted; single site binding model"}
{"substance": "UBE2A (from UniProt P49459 1-152) (enzyme)", "values": [{"measurement": "dH", "result": -3.89, "unit": "kcal/mol"}]}
